Data as given in US20250027072A1, “METHODS AND COMPOSITIONS RELATED TO ENGINEERED CANNABINOID RECEPTORS” (priority 2021, published 2025).

Chains of the proteins cited; added tags and fusions are not shown.
UniProt P34972, whole entry: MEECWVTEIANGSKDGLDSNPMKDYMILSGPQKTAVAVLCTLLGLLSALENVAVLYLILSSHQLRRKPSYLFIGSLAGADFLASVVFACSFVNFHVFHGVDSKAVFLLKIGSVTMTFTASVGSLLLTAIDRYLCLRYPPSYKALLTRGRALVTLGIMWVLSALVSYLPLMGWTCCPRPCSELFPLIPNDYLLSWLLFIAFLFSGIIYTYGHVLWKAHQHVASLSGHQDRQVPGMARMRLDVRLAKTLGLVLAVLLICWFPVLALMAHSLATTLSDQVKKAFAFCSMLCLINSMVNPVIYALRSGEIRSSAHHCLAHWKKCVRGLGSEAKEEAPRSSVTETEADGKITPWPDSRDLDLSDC

Biological target: human cannabinoid receptor type II (CB2R) (Homo sapiens, UniProt P34972)

CC(C)(C)C(NC(=O)c1nn(Cc2ccccc2)c2ccccc12)C(N)=O (stereo not drawn)
signaling at CB2R in synthetic cannabinoid screen (compounds at 1 μM): strong CB2R agonist | preference at CB2R of ADB-BINACA over AB-PINACA (from EC50 values): roughly 100 times | EC50 (read-out: EC50 at CB2R, dose response, MFα-CB2R, ST03 sterol strain, pH 5.8): 1.15 nM
